For this experiment, the system named is Shh-nLZ C/C; Dat-Cre mutant animals. The note with it: mutant animals compared to litter controls.

Structures are written as SMILES. Like-named read-outs stand apart in the source and are kept apart here.

This note sets out measurements from US20120082623A1, “SHH Regulation and Methods Thereof” (priority 2009, published 2012).

On to `CC(N)Cc1ccccc1` (centres unmarked) [Amphetamine], for which the “elicited DA mobilization (increased locomotion upon injection)” value is on record as “undetectable” (8 weeks of age) and “normal” (28 days of age).
